PMC13408504, “Design, structure-based optimization and antiviral evaluation of potent inhibitors for the macrodomain Mac1 of SARS-CoV-2” (Nature Communications, 2026)

Tested on: cellular NAD+ levels in CaLu-3 cells
Assay: Quantification of cellular NAD+ (enzymatic cycling kit, normalised to protein)
Type: cell-based
Details: CaLu-3, after 2 h

O=C(/C=C/c1cccnc1)NCCCCC1CCN(C(=O)c2ccccc2)CC1 [FK866]
effect on cellular NAD levels (in words): no measurable effect
